US7276339B2 (H. Lundbeck A/S, priority 1998, dated 2007)

Sequences of proteins named here, by UniProt entry; tags and fusion partners are left off. A change or cut given only in a name is not applied to a line headed by its entry. Residues count along the entry.
UniProt Q9GZQ6: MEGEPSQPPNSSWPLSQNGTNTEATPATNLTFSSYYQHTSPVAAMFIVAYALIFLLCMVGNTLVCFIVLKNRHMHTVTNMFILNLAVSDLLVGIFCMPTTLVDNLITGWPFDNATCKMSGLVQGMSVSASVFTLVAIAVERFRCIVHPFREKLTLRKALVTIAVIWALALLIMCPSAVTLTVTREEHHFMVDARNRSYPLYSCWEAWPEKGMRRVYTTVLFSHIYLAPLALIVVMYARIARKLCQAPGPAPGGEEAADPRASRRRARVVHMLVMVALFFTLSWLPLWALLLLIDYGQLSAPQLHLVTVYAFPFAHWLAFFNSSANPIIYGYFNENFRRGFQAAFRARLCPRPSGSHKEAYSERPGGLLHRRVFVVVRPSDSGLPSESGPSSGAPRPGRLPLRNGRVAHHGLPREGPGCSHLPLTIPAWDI
UniProt Q9Y5X5, 103-522: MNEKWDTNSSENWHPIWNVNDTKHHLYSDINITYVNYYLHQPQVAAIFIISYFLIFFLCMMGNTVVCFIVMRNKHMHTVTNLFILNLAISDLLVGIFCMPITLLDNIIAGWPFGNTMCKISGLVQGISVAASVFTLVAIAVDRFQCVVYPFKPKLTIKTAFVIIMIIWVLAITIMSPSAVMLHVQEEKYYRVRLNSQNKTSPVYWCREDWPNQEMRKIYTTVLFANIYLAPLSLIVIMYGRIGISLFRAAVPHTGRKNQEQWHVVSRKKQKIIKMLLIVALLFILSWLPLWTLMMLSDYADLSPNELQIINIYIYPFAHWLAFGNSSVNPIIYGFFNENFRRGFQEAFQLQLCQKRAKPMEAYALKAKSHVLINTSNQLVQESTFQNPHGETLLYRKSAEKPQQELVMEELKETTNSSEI
UniProt Q9EQD2: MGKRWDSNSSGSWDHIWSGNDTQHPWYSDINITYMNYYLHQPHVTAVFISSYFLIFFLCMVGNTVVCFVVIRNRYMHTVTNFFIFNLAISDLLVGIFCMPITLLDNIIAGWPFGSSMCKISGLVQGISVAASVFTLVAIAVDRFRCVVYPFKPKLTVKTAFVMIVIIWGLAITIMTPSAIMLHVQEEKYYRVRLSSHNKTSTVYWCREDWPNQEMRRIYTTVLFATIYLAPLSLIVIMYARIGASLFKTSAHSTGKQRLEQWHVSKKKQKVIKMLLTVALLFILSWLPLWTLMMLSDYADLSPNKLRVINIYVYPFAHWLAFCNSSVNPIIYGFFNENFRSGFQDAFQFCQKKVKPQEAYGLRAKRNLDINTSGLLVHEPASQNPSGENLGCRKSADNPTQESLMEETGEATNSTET
UniProt Q9EP86: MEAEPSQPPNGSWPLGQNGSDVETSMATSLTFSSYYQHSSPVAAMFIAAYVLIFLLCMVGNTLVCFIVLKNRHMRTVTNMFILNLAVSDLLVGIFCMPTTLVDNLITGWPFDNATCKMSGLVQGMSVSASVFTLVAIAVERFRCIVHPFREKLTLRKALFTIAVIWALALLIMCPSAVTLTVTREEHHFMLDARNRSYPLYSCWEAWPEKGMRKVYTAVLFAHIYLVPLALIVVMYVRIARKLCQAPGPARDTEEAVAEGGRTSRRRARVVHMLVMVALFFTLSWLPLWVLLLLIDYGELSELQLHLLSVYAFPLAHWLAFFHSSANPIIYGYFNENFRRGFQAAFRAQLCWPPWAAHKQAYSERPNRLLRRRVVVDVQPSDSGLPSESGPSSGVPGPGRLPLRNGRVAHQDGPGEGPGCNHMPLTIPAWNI

Key:
[1] = molecular target: rat spinal cord membrane receptor; experiment: [125I]D-Tyr-NPFF radioligand binding, rat spinal cord membranes; settings: competition of [125I]D-Tyr-NPFF binding; * = differs from NPFF1
Source text: The binding profile of rat NPFF1 was compared to that of rat spinal cord membranes. […] (See * Table 2).

human NPFF1 receptor [2] = molecular target: T1, human NPFF1 receptor (Homo sapiens, UniProt Q9GZQ6); experiment: [125I]D-Tyr-NPFF radioligand binding, HEK-293 cells expressing human NPFF1; settings: Table 3, read-out: pKi ± SEM, human NPFF1 (converted)
T1 construct: To obtain a full-length hNPFF1 construct in the correct orientation; expressed in transfected cells; host or cells: HEK-293 (transient)
Procedure: (§1) Transfected cells from culture flasks are scraped into 5 ml of 20 mM Tris-HCl, 5 mM EDTA, pH 7.5, and lysed by sonication. The cell lysates are centrifuged at 1000 rpm for 5 min. at 4° C., and the supernatant is centrifuged at 30,000×g for 20 min. at 4° C. The pellet is suspended in binding buffer (50 mM Tris-HCl, 60 mM NaCl, 1 mM MgCl, 33 μM EDTA, 33 μM EGTA at pH 7.4 supplemented with 0.2% BSA, 2 μg/ml aprotinin, and 20 μM bestatin). Optimal membrane suspension dilutions, defined as the protein concentration required to bind less than 10% of the added radioligand, are added to 96-well polpropylene microtiter plates containing ^3H-labeled compound, unlabeled compounds, and binding buffer to a final volume of 250 μl. […] The binding affinities of the different compounds are determined in equilibrium competition binding assays, using [^125I]-labeled compound in the presence of ten to twelve different concentrations of the displacing ligands. […] Radioactivity may be measured by scintillation counting and data are analyzed by a computerized non-linear regression program. Non-specific binding is defined as the amount of radioactivity remaining after incubation of membrane protein in the presence of 1 μM final concentration […]. Protein concentration may be measured by the Bradford method using Bio-Rad Reagent, with bovine serum albumin as a standard. […]

human NPFF2 receptor [3] = molecular target: T2, human NPFF2 receptor (Homo sapiens, UniProt Q9Y5X5); experiment: [125I]D-Tyr-NPFF radioligand binding, HEK-293 cells expressing human NPFF2; settings: Table 3, read-out: pKi ± SEM, human NPFF2 (converted)
T2 construct: BO89, was determined to be a full length clone with no point mutations; expressed in transfected cells; host or cells: HEK-293 (transient)
Procedure: as §1

rat NPFF2 receptor = molecular target: T3, rat NPFF2 receptor (Rattus norvegicus, UniProt Q9EQD2); experiment: [125I]D-Tyr-NPFF radioligand binding, cloned rat NPFF2; settings: Table 3, title HEK-293 cells (text: Cos-7), read-out: pKi ± SEM, rat NPFF2 (converted)
T3 construct: The full-length rat NPFF2 clone was amplified from rat spinal cord cDNA; expressed in transfected cells; host or cells: COS-7
Procedure: as §1

NPFF2 (NPFF-like) = molecular target: T4, NPFF2 (NPFF-like) (Homo sapiens, UniProt Q9Y5X5); experiment: Voltage-clamp electrophysiology, Xenopus oocytes injected with NPFF-like (NPFF2) and chimeric Gαq/z RNA; assay type: cell-based; settings: 1 μM, holding potential −80 mV
T4 construct: linearized plasmids or PCR products containing the complete coding region of the genes; expressed in transfected cells; host or cells: Xenopus laevis oocytes injected with mRNA from ligation PCR products or linearized BO89
Procedure: For expression of NPFF2, mRNA transcripts were generated as described for NPFF1, using PCR products from ligation reactions or linearized DNA from BO89 as DNA templates. Oocytes were injected with 5-50 ng NPFF2 mRNA and incubated as previously described.
(§2) Oocytes were harvested from Xenopus laevis and injected with mRNA transcripts as previously described (Quick and Lester, 1994; Smith et al., 1997). […] Three to eight hours prior to recording, oocytes were injected with 500 pg Gαq/z mRNA in order to observe coupling to Ca^++ activated Cl^− currents. Dual electrode voltage clamp (Axon Instruments Inc.) was performed using 3 M KCl-filled glass microelectrodes having resistances of 1-2 Mohm. Unless otherwise specified, oocytes were voltage clamped at a holding potential of −80 mV. During recordings, oocytes were bathed in continuously flowing (1-3 ml/min) medium containing 96 mM NaCl, 2 mM KCl, 1.8 mM CaCl2, 1 mM MgCl2, and 5 mM HEPES, pH 7.5 (ND96). Drugs were applied either by local perfusion from a […] glass capillary tube fixed at a distance of 0.5 mm from the oocyte, or by switching from a series of gravity fed perfusion lines.
Heterologous expression of GPCRs in Xenopus oocytes has been widely used to determine the identity of signaling pathways activated by agonist stimulation (Gundersen et al., 1983; Takahashi et al., 1987). […]

NPFF receptors = settings: spinal cord membranes; read-out: Ki, inhibition of [125I](1DMe)Y8Fa binding; cited from earlier work
rat NPFF1 receptor = rat NPFF1 receptor (Rattus norvegicus, UniProt Q9EP86); experiment: [125I]D-Tyr-NPFF radioligand binding, HEK-293 cells expressing rat NPFF1; design: expressed in transfected cells; settings: Table 3, read-out: pKi ± SEM, rat NPFF1 (converted)
Procedure: as §1

human NPFF1 receptor [4] = molecular target: T1, human NPFF1 receptor; experiment: Intracellular calcium mobilization, COS-7 cells expressing human NPFF1 and Gq/Gz chimera; assay type: cell-based
Procedure: (§3) Alternatively, cells expressing the mammalian receptor DNA are plated in 96-well plates and grown to confluence. Cells are incubated with a cell permeant fluorescent calcium indicator such as, but not restricted to, Fluo-3/AM. After washing with HBS to remove the Fluo-3/AM solution, cells are equilibrated for 20 min. The fluorescence emission due to intracellular calcium mobilization elicited by agonists of the expressed mammalian receptor, is determined with a fluorescence imaging plate reader (FLIPR, Molecular Devices Corporation, Sunnyvale, Calif.).
(§4) The coupling of human NPFF1 and NPFF2 receptors to the activation of intracellular second messenger pathways was studied further in COS-7 cells co-transfected with the Gq/Gz chimera.

human NPFF2 receptor [5] = molecular target: T2, human NPFF2 receptor; experiment: Intracellular calcium mobilization, COS-7 cells expressing human NPFF2 and Gq/Gz chimera; assay type: cell-based
Procedure: as §3, §4

NPFF1 (SNORF2) = molecular target: T5, NPFF1 (SNORF2) (Rattus norvegicus, UniProt Q9EP86); experiment: Voltage-clamp electrophysiology, Xenopus oocytes injected with SNORF2 (NPFF1) and chimeric Gαq/z RNA; assay type: cell-based; settings: 10 μM
T5 construct: linearized plasmids or PCR products containing the complete coding region of the genes; expressed in transfected cells; host or cells: Xenopus laevis oocytes injected with synthetic RNA (T7 transcripts)
Procedure: as §2
Heterologous expression of GPCRs in Xenopus oocytes has been widely used to determine the identity of signaling pathways activated by agonist stimulation (Gundersen et al., 1983; Takahashi et al., 1987). Activation of the phospholipase C (PLC) pathway is assayed by applying test compound in ND96 solution to oocytes previously injected with mRNA for the mammalian receptor and observing inward currents at a holding potential of −80 mV. […]

| Compound | pKi for rat spinal cord membrane receptor binding, MEAN [1] | Ki (human NPFF1 receptor [2]) [nM] | Ki (human NPFF2 receptor [3]) [nM] | Ki (rat NPFF2 receptor) [nM] | inward current response (NPFF2 (NPFF-like)) | Ki (NPFF receptors) [nM] | Ki (rat NPFF1 receptor) [nM] | % of NPPF Response, NPFF1 (human NPFF1 receptor [4]) [%] | EC50 (human NPFF1 receptor [4]; read-out: pEC50, intracellular calcium mobilization, NPFF1 (converted)) [nM] | % of NPPF Response, NPFF2 (human NPFF2 receptor [5]) [%] | EC50 (human NPFF2 receptor [5]; read-out: pEC50, intracellular calcium mobilization, NPFF2 (converted)) [nM] | inward current response (NPFF1 (SNORF2)) |
| --- | --- | --- | --- | --- | --- | --- | --- | --- | --- | --- | --- | --- |
| CSCC[C@H](NC(=O)[C@@H](N)Cc1ccccc1)C(=O)N[C@@H](CCCNC(=N)N)C(=O)N[C@@H](Cc1ccccc1)C(N)=O [FMRFa] | 8.493 | 0.794 | 3.98 | 10 | No activity | 30 | 2 | – | – | – | – | – |
| N=C(N)NCCC[C@H](NC(=O)[C@H](CCC(N)=O)NC(=O)[C@@H]1CCCN1)C(=O)N[C@@H](Cc1ccccc1)C(N)=O [PQRFa] | 8.541 | 39.8 | 25.1 | 25.1 | activated similar inward currents | – | 25.1 | 93 | 200 | 94 | 100 | elicited responses |
| CC(C)C[C@H](NC(=O)[C@@H](N)Cc1ccccc1)C(=O)N[C@@H](Cc1ccccc1)C(=O)N[C@@H](CCC(N)=O)C(=O)N1CCC[C@H]1C(=O)N[C@@H](CCC(N)=O)C(=O)N[C@@H](CCCNC(=N)N)C(=O)N[C@@H](Cc1ccccc1)C(N)=O [NPFF] | 9.055 | – | – | – | – | 0.29 | – | – | – | – | – | – |
